# Assay results from US20220072015A1, “Methods of Inhibiting Pathological Angiogenesis” (Unity Biotechnology, Inc., priority 2017, published 2022).
# Biological target: Bcl isoforms
# Test: Binding affinity for the Bcl isoforms
# Details: result in words
row,Structure (SMILES),binding affinities (Ki) for the Bcl isoforms
1,CCn1c(C)c(C(=O)NS(C)(=O)=O)c(-c2cccc(N3CCN(c4ccc(NS(=O)(=O)c5ccc(N[C@H](CCN(C)C)CSc6ccccc6)c([N+](=O)[O-])c5)cc4)CC3)c2)c1-c1ccc(Cl)cc1,nanomole to picomole range
2,Cc1c(S(C)(=O)=O)c(-c2cc(F)cc(N3CCN(c4ccc(NS(=O)(=O)c5ccc(N[C@H](CCN6CCC(C(=O)OCCCP(=O)(O)O)CC6)CSc6ccccc6)c(S(=O)(=O)C(F)(F)F)c5)cc4)CC3)c2)c(-c2ccc(Cl)cc2)n1C(C)C,nanomole to picomole range
